# Permeability data for macrocyclic peptides

Data: CycPeptMPDB; original report White et al. 2011, doi:10.1038/nchembio.664.

RRCK values come from monolayers of low-efflux MDCK cells. Values are log10 P with P in cm/s, so -5 is more permeable than -7.

RRCK (log10 cm/s) | structure (SMILES)
-5.72 | CC(C)C[C@@H]1NC(=O)[C@H](CC(C)C)N(C)C(=O)[C@@H](CC(C)C)N(C)C(=O)[C@H](CO)NC(=O)[C@H](Cc2ccc(O)cc2)N(C)C(=O)[C@H]2CCCN2C1=O
-6.12 | CC(C)C[C@@H]1NC(=O)[C@H](Cc2ccc(O)cc2)N(C)C(=O)[C@H]2CCCN2C(=O)[C@H](CO)NC(=O)[C@H](CC(C)C)N(C)C(=O)[C@@H](CC(C)C)N(C)C1=O

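Lipid, pH, incubation time, direction and concentration are not recorded in the data file. The list need not hold all peptides of the study. Peptides that the database sets to -10, its floor, are left out.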